# Measurements reported in patent US9504672B2, “Compositions and methods for treating or preventing pneumovirus infection and associated diseases” (MicroDose Therapeutx, Inc., priority 2012, dated 2016).
# Details: open wide glass bottles, 40° C./75% RH, 4 weeks
smiles,measurement,value
"Cc1nnnn1/N=C/c1ccc(O)c(C(c2ccc(O)cc2)c2cc(/C=N/n3nnnc3C)ccc2O)c1 [P-3 dihydrate, phenol, 2,2′-[(4-hydroxyphenyl)methylene]bis[4-[[(5-methyl-1H-tetrazol-1-yl)imino]methyl]]]",change of form / solid-state stability (DSC and PXRD),stable against solid-state changes and chemical degradation
